System: human NA-NK lymphocytes
Assay: [3H] thymidine proliferation assay, NA-NK lymphocytes
Type: cell-based
Conditions: read-out: IC50, inhibition of mitogen-induced proliferation of NA-NK lymphocytes; human non-adherent NK cells, 40 ng/mL PMA + 500 nM ionomycin, 72 h, [3H] thymidine incorporation, N = 3

SMILES: CC[C@H](C)[C@@H]1NC(=O)[C@@H](NC(=O)[C@H](CO)NC(=O)[C@H](CCCNC(=N)N)NC(=O)COCCOCCNC(=O)[C@@H](N)Cc2ccc(OP(=O)(O)O)cc2)CSSC[C@@H](C(N)=O)NC(=O)[C@H]([C@@H](C)O)NC(=O)CNC(=O)[C@@H]2CSSC[C@@H]3NC(=O)[C@H](CCC(N)=O)NC(=O)[C@H](Cc4ccccc4)NC(=O)[C@H](C)NC(=O)[C@H]([C@@H](C)O)NC(=O)[C@H](CSSC[C@H](NC(=O)[C@H](Cc4ccccc4)NC(=O)[C@H](CO)NC(=O)[C@H](CC(C)C)NC(=O)[C@H](CCCNC(=N)N)NC(=O)[C@H](Cc4ccc(O)cc4)NC(=O)[C@H](CCCCN)NC(=O)[C@H](CCSC)NC(=O)[C@H](CO)NC(=O)[C@H](Cc4c[nH]cn4)NC(=O)[C@H](CCCCN)NC3=O)C(=O)N[C@@H](CCCNC(=N)N)C(=O)N[C@@H](CCCCN)C(=O)N[C@@H]([C@@H](C)O)C(=O)N2)NC(=O)[C@H](CCCNC(=N)N)NC(=O)[C@H](CO)NC(=O)[C@H](CCCCN)NC(=O)[C@@H]2CCCN2C(=O)[C@H]([C@@H](C)CC)NC(=O)[C@H]([C@@H](C)O)NC(=O)[C@H](CC(=O)O)NC1=O [ShK-186]
- IC50: 5 to 15 nM

From PMC3968461 (Scientific Reports, 2014)
